Each structure is given as a SMILES string. A value given as a limit tells only on which side of the number the result lay.

This test deals with Bromodomain-containing protein 4 (Homo sapiens, UniProt O60885).
Note: test concentration or dose not given here.

`Cc1cc(-c2cc(NS(C)(=O)=O)ccc2Oc2ccccc2)n2c1C(=O)NCC2`: the ΔTm was greater than 1 °C.

As a reminder, the ΔTm is the change in melting temperature against a reference sample.

Values taken from ChEMBL document CHEMBL4402585 (J Med Chem, 2020).
